Laboratory results from ChEMBL document CHEMBL5647699, “Discovery of a chemical probe for PRDM9” (Nat Commun, 2019).

Sequences of proteins named here, by UniProt entry; tags and fusion partners are left off. A change or cut given only in a name is not applied to a line headed by its entry.
UniProt Q9NQV7: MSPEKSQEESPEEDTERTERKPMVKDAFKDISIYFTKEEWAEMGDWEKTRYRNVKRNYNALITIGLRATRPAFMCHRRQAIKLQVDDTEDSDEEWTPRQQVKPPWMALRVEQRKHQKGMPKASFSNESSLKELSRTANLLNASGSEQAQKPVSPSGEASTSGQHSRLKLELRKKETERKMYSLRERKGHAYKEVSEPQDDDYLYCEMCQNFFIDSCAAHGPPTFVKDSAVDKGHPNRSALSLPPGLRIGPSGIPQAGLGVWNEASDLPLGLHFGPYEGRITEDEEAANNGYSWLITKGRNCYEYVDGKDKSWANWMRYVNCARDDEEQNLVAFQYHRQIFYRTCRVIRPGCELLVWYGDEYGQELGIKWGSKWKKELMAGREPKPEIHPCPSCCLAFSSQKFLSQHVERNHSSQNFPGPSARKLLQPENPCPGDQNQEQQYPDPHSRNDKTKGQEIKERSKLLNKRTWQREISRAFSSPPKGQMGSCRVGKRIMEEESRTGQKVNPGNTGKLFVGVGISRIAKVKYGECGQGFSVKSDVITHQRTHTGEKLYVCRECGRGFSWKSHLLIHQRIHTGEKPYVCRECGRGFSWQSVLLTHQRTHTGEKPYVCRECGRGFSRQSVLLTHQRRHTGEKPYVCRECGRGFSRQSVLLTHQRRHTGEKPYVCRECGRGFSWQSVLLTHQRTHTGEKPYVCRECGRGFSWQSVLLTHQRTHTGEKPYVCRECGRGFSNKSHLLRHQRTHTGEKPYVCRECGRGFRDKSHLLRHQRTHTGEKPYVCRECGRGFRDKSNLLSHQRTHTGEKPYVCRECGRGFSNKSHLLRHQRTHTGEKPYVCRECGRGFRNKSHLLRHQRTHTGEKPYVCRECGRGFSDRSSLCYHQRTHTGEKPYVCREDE

Target: Histone-lysine N-methyltransferase PRDM9 (Homo sapiens) (UniProt Q9NQV7)
Assay: Binding affinity to PRDM9 (unknown origin) (195 to 415 residues) assessed as binding rate constant (Kon) measured at 60 to 120 secs in presence of SAM by surface plasmon resonance assay
Conditions: time 60-120 sec

`COc1cc(OC)cc(-c2noc(N3CCN(C)C4(CCN(c5ccnc(C)c5)CC4)C3)n2)c1` was tested, and the K was 1.2 10^6/M/s.
